Laboratory results as given in ChEMBL document CHEMBL1129998, “Pharmacological options in the treatment of benign prostatic hyperplasia” (J Med Chem, 1997).

By UniProt entry, the sequences of proteins in these tests, tags left out.
UniProt P35368, whole entry: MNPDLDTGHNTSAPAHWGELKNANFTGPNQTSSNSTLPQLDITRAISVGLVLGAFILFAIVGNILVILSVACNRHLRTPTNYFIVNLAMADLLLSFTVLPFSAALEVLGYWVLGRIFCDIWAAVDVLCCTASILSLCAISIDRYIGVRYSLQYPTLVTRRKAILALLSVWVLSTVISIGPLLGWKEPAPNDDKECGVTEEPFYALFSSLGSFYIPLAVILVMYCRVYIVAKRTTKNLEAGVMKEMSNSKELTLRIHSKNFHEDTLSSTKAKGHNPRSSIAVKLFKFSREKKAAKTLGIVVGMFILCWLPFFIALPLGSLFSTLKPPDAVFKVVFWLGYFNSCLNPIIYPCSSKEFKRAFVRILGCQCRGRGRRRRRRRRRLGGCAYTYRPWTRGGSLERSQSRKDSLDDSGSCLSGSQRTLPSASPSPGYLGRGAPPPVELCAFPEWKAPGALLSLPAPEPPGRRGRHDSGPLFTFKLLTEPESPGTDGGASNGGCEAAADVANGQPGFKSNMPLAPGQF
UniProt P25100, whole entry: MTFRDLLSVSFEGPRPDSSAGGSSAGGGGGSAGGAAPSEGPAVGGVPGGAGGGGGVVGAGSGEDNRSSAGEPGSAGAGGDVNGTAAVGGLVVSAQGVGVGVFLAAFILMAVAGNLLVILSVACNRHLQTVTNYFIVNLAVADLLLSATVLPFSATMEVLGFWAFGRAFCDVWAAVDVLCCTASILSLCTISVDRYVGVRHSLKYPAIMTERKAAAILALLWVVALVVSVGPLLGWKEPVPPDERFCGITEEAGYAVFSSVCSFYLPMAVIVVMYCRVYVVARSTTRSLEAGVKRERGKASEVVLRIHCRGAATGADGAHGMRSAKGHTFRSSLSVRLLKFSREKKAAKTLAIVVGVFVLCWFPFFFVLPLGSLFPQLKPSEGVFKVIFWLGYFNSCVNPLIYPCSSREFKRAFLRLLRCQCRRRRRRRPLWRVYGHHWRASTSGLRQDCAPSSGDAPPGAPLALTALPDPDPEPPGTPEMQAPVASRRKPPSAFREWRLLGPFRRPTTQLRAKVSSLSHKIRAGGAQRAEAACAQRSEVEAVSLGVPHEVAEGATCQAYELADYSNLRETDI

How the values were obtained:
[1] = target: Alpha-1B adrenergic receptor (Homo sapiens, UniProt P35368); experiment: Binding affinity was tested on human Alpha-1B adrenergic receptor
[2] = target: Alpha-1D adrenergic receptor (Homo sapiens, UniProt P25100); experiment: Binding affinity was tested on human Alpha-1D adrenergic receptor
[3] = target: Adrenergic receptor alpha-1 (Homo sapiens, UniProt P35348+P25100+P35368); experiment: pA2 for Alpha-1 adrenergic receptor from human prostate.; format: tissue-based, Prostate gland
[4] = target: T1, Alpha-1A adrenergic receptor (Homo sapiens, UniProt P35348); experiment: Binding affinity was tested on human Alpha-1A adrenergic receptor
T1 sequence (P35348 whole entry): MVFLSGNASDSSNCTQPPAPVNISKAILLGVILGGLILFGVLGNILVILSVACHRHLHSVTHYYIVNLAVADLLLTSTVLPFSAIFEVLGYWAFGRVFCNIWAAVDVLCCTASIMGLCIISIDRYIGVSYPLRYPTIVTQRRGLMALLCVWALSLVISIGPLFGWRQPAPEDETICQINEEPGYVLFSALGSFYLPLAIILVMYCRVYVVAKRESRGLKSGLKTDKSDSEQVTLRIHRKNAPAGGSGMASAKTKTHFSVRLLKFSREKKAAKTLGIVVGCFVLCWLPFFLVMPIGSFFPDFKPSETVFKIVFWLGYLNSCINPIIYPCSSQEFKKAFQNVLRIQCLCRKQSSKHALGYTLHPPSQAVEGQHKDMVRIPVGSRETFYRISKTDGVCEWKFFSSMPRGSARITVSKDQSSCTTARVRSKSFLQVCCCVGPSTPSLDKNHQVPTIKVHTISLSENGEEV

Compound	Ki [1] [nM]	Ki [2] [nM]	pA2 [3]	Ki [4] [nM]
COc1cc2nc(N3CCN(C(=O)C4COc5ccccc5O4)CC3)nc(N)c2cc1OC (centres undefined) [DOXAZOSIN]	1			
COc1ccccc1N1CCN(CCCNC(=O)c2cccc3c(=O)c(C)c(-c4ccccc4)oc23)CC1 [UPIDOSIN]		2.51	8.8	1
